In patent US6699662:

Biological target: T1, SarA (staphylococcal accessory regulator A), strain DB (Staphylococcus aureus) (UniProt Q2G2U9)
T1 sequence: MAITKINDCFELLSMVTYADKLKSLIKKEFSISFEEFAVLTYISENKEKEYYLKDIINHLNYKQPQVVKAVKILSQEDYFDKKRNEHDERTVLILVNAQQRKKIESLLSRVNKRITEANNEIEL
Assay: EMSA
Conditions: same buffer; 1 dimer per DNA; dG dissociation 13.0 kcal/mol; text gives 200 pM

Substance | Kd
P2 oligo (45 bp) | 0.22 nM
P3 oligo (45 bp) | 0.22 nM
